Laboratory results: patent US12060433B2, “CD73 inhibitor and A2A/A2B adenosine receptor inhibitor combination therapy” (Incyte Corporation, priority 2020, dated 2024)

By UniProt entry, the sequences of proteins in these tests, tags left out. Where a name states a change or a piece, a line headed by the entry shows the natural chain unless it says otherwise.
UniProt P29275, whole entry: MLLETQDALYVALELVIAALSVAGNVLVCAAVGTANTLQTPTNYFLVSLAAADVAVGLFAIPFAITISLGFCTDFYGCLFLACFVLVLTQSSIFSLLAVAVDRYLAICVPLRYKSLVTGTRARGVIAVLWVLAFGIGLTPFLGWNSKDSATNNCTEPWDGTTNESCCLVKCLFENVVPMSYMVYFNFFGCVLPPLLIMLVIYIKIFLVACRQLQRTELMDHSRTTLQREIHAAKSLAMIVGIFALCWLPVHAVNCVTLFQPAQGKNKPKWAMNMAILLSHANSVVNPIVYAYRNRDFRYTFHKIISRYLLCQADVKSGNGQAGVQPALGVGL

Experiments:
[1] = molecular target: human adenosine A2B receptor (stably transfected HEK-293 cells) (Homo sapiens, UniProt P29275); test: Adenosine A2B receptor cyclic AMP GS assay; format: cell-based; conditions: read-out: A2B_cAMP_EC50; agonist NECA at 12 nM; cAMP accumulation; tested form: TFA
[2] = molecular target: Adenosine A2A receptor (Tag-Lite Adenosine A2A labeled cells) (Homo sapiens, UniProt P29274); test: A2A Tag-lite HTRF assay (displacement of fluorescent antagonist ligand); conditions: read-out: A2A_Ki; fluorescent ligand 12.5 nM, ligand Kd 1.85 nM; tested form: TFA

| Structure (SMILES) | EC50 [1] [nM] | Ki [2] [nM] |
| --- | --- | --- |
| N#Cc1cccc(-c2nc(N)n3nc(Cn4nnc(-c5ccccn5)n4)nc3c2-c2ccncn2)c1 | < 10 | < 10 |
| N#Cc1cccc(-c2nc(N)n3nc(Cn4nnc(-n5cccn5)n4)nc3c2-c2ccncn2)c1 | < 10 | < 10 |
